Test system: E. coli ATCC 25922
Test: Antibiotic interaction assay (Wimley), 2/3 broth microdilution: MIC alone, MIC of combination, FICI
Type: cell-based
Method: Synergy was evaluated by an antibiotic interaction assay (Wimley, 2015) Using the method of Wimley (BBA, 2015, v. 1848(1), pp. 8-15), synergy between the membrane-activating peptide and an antibiotic was measured by an FICI value (FIG. 17). […] Thus, to accurately examine synergy, a ⅔ dilution method which observes MIC at denser concentration intervals is advantageous over a ½ dilution method in statistical terms. Namely, starting with the concentration of the membrane-activating peptide (first line) which corresponds to 3×MIC, ⅔ dilution is performed, and the MIC of the peptide is measured. In the same manner, the MIC of an antibiotic or repositioning drug (second line) is measured. In the third line, the two compounds are mixed after putting half amount each, and the MIC thereof is measured.
A broth microdilution technique (⅔ dilution) was used together with an MH broth. E. coli treated with an antibiotic and the peptide was incubated in a 37° C. incubator for 18 hours.
To measure the synergy between the membrane-activating peptides and the repositioning drug, a 10× compound was prepared, and then serially diluted ⅔-fold with distilled water. […] After addition of the bacterial cells, plate was incubated at 37° C. for 18 hours, and then the OD value at UV-Vis (600 nm) was measured. […]

CN[C@H](CC(C)C)C(=O)N[C@H]1C(=O)N[C@@H](CC(N)=O)C(=O)N[C@H]2C(=O)N[C@H]3C(=O)N[C@H](C(=O)N[C@H](C(=O)O)c4cc(O)cc(O)c4-c4cc3ccc4O)[C@H](O)c3ccc(c(Cl)c3)Oc3cc2cc(c3O[C@@H]2O[C@H](CO)[C@@H](O)[C@H](O)[C@H]2O[C@H]2C[C@](C)(N)[C@H](O)[C@H](C)O2)Oc2ccc(cc2Cl)[C@H]1O [vancomycin]
synergy with KL-L9P: not synergistic

From US20180339016A1 (priority 2015, published 2018)
